Measurements: patent US20130116182A1, “Factor VIII B Cell Epitope Variants Having Reduced Immunogenicity” (priority 2009, published 2013)

Key:
HLA-DRB1*0101 (DR0101) = HLA-DRB1*0101 (DR0101) (Homo sapiens, UniProt P01903+P01911, A100R/D57E/F55L/F60I/F76Y/I96L/L162R/M171V/P40L/Q125E/R42F/V115G/Y59C); assay: HLA-DR peptide binding competition assay, DR0101; settings: concentration displacing 50% reference peptide, ± standard error of the mean, NB = no binding
CD4+ T cells = assay: Staining with peptide-loaded DR1101 tetramers (tetramer guided epitope mapping); format: cell-based, human

CC[C@H](C)[C@H](NC(=O)[C@H](CC(N)=O)NC(=O)[C@H](CCC(=O)O)NC(=O)[C@@H](NC(=O)[C@H](CC(C)C)NC(=O)[C@H](Cc1ccc(O)cc1)NC(=O)[C@H](Cc1c[nH]c2ccccc12)NC(=O)[C@H](CO)NC(=O)[C@H](CCCNC(=N)N)NC(=O)[C@H](CC(N)=O)NC(=O)[C@@H](N)CCC(=O)O)[C@@H](C)O)C(=O)N[C@@H](CCC(N)=O)C(=O)N[C@@H](CCCNC(=N)N)C(=O)N[C@@H](Cc1ccccc1)C(=O)N[C@@H](CC(C)C)C(=O)N1CCC[C@H]1C(=O)N[C@@H](CC(N)=O)C(=O)N1CCC[C@H]1C(=O)N[C@@H](C)C(=O)NCC(=O)O [FVIII581-600]
IC50 (HLA-DRB1*0101 (DR0101)): 38 ± 30 µM
tetramer staining of peptide-stimulated CD4+ T cells (CD4+ T cells; inhibitor subject 1D): Weaker positive staining; also recorded: tetramer-positive
tetramer staining of peptide-stimulated CD4+ T cells (CD4+ T cells; mild HA subject 41A): positive staining; also recorded: tetramer-positive

“Also recorded” adds a separate entry of the source.
